# Antibody variant affinities, Ab-91 heavy chain, assay 2

The target is the same throughout: PDVDLGDISGINAS, from the HR2 region of SARS-CoV-2 spike.

The variants keep the light chain, the linker and the frameworks of Ab-91 (scFv order VL, a (GGGGS)3 linker, VH).
VL: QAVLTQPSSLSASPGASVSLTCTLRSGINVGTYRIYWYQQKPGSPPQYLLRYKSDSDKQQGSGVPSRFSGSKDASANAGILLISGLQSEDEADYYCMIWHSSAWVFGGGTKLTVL
VH: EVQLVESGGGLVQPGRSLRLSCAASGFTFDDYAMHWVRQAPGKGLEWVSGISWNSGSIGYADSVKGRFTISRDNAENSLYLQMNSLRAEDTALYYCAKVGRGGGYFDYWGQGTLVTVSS

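Phage display of a naive human antibody library on the peptide gave the parent. In library AAYL51, one, two or three CDR residues were substituted; doubles and triples were drawn at random. AlphaSeq pools MATa yeast showing the antibodies with MATalpha yeast showing the peptide. After mating in shaken culture at 30 °C for 16 h, diploids were selected and their barcode pairs sequenced. Scores were corrected for input abundance and mapped to Kd with protein pairs of known affinity run in the same pool. There are three technical replicates.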

The parent's heavy chain CDRs are GFTFDDYAMH, GISWNSGSIGYADSVK, VGRGGGYFDY; each variant's own CDRs replace them letter for letter. Numbers give log10(Kd / nM), so 0 is 1 nM and 3 is 1 µM. Smaller is tighter. A pair that was not seen in that replicate is written "ND"; this usually means weak binding, but a binder can also be missed. Empty control strains, which show no peptide, gave a signal in 21% of pairings with library AAYL51; the median was 4.54 and 95% of these signals were weaker than 3.26. No background was subtracted. For each scFv, signals with the empty controls are counted beside the result, with their mean in brackets. For reference, the parent read 1.86 as the reference entry and 0.88 as a member of this library.

| CDR-H1 | CDR-H2 | CDR-H3 | log10 Kd, replicates | signal with controls |
|---|---|---|---|---|
| TFTFDDYAMH | GISWNSNSIGYADSVK | VGRGGGYFDY | ND / ND / 3.35 | 0 of 9 |
| GFTFDDYAMH | NISWNSGSIGYADSVK | VGRGGPYFTY | ND / ND / ND | 0 of 9 |
| GQTFDDYRMH | GISWNSGSIDYADSVK | VGRGGGYFDY | ND / ND / ND | 1 of 9 (2.77) |
| GFTFDDYAMH | GISWNSISIKYADSVK | VGRGGPYFDY | 5.75 / ND / ND | 1 of 9 (3.40) |
| GFTFDDYCMH | GISWNSGSIGYADSVK | VGRGGLYFDY | 5.16 / 4.74 / ND | 2 of 9 (4.07) |
| GFTFDDYAMH | GSSWNSGSIGYADSVK | VGRIGGYFDY | ND / 4.83 / ND | 1 of 9 (3.72) |
| GFTFDDYAFH | GISWNSGSIGYAMSEK | VGRGGGYFDY | ND / ND / 4.48 | 0 of 9 |
| GFTFDDYAPH | GISWNSGSIGIADSVK | VGRGGGPFDY | 3.46 / 3.79 / ND | 1 of 9 (4.19) |
| GFTFDDYAMH | GISWNSGSIGYADLVK | VGRHGAYFDY | ND / 4.99 / ND | 3 of 9 (4.27) |
| WFTFDDYAMH | GISWNSGSIGYADSVK | VGRGGGYDDE | ND / ND / ND | 0 of 9 |
| GFTFDDYAMH | GIIWNSGSIGYADSVK | VGSGGGYFDY | ND / ND / ND | 1 of 9 (4.59) |
| WFTFDDYATH | LISWNSGSIGYADSVK | VGRGGGYFDY | ND / ND / ND | 2 of 9 (4.38) |
| GFTFMDYAMH | GISWNSGSIGYADSVT | VGRGGGYQDY | ND / ND / ND | 1 of 9 (4.19) |
| GFTFDDYAMH | GISWSSGCIGYADSVM | VGRGGGYFDY | 4.60 / 5.44 / 5.12 | 2 of 9 (5.27) |
| GFTFDSYAMH | HISWNSGSIGYADSVK | VGPGGGYFDY | ND / ND / ND | 0 of 9 |
| GFTEDDYAMH | GISWNSGSIGYACSVR | VGRGGGYFDY | ND / ND / ND | 2 of 9 (3.55) |
| GFTFIDYAMH | GISWNSGSIGYAGQVK | VGRGGGYFDY | 3.91 / ND / ND | 1 of 9 (3.75) |
| GFTFDDYAMH | GISWNPGSIGYADSVK | VGRGGGYRDY | ND / ND / ND | 1 of 9 (3.13) |
| GFTFDDYAMH | GISWYSGSIGYADSVK | VGRGGEKFDY | ND / ND / ND | 7 of 9 (4.88) |
| IFTFDDYAMH | GISWNSGNIMYADSVK | VGRGGGYFDY | 4.37 / ND / ND | 1 of 9 (3.51) |
| LFTFDDYAAH | GISWNSGSIGRADSVK | VGRGGGYFDY | ND / ND / ND | 0 of 9 |
| GFTFDWYAWH | GISWNSGSIGYADSVK | WGRGGGYFDY | ND / ND / ND | 0 of 9 |
| GFTFDDYAMH | MAAWNSGSIGYADSVK | VGRGGGYFDY | ND / ND / ND | 0 of 9 |
| GFTFDDYWMH | GISWNSGSIGYADSFK | VGRGGAYFDY | ND / ND / ND | 0 of 9 |
| GFGFDDYAMH | GISWNSGSIGYADSGK | VGRGGGYRDY | ND / ND / ND | 3 of 9 (4.63) |
| GFTFDDYAMH | GISWNSGSQQYADSVK | VGRGGGYFDQ | 5.52 / ND / ND | 3 of 9 (4.19) |
| GFTFDDYAMH | GISWNSGSIGYPDSVR | VGRGGGYFDI | 3.84 / ND / ND | 0 of 9 |
| GFTFDDYAMH | GIMWNSGSIGYADSVK | VGRGGGNFIY | ND / ND / ND | 0 of 9 |
| GFTFDDYAMK | GISWNSGSIGYVFSVK | VGRGGGYFDY | ND / ND / ND | 0 of 9 |
| GFTFCDYAMH | GIYWNSGSIGYADTVK | VGRGGGYFDY | ND / ND / ND | 0 of 9 |
| GFTFYDYAMH | GISWNSGSIGYAMSVK | VGRGGTYFDY | ND / ND / ND | 1 of 9 (2.97) |
| GFTFDNYAMH | GISWNSGAIGYADSVK | VGRGQGYFDY | 1.89 / 1.72 / 1.74 | 6 of 9 (4.12) |
| GFTFDDYAMH | GICWNSGSILYADSVK | VPRGGGYFDY | ND / ND / ND | 0 of 9 |
| GFDFIDYAMH | GISWSSGSIGYADSVK | VGRGGGYFDY | 3.34 / 3.62 / 4.13 | 1 of 9 (3.12) |
| GFTFDDYAMH | GISWNSGSIGMADSVK | VARGGGYFDY | ND / ND / 4.94 | 6 of 9 (4.67) |
| GFTFDDYAPH | GISWARGSIGYADSVK | VGRGGGYFDY | ND / 4.52 / ND | 4 of 9 (4.47) |
| GFTFDDYAMH | GISWNSESIGYADSPK | VGRGGGYFDY | 2.22 / 2.49 / 2.55 | 0 of 9 |
| GFTFDDYAMH | GISWNSGSIGYADLVK | VVRGGGYFDY | 4.86 / ND / ND | 2 of 9 (3.73) |
| GFTDDDFAMH | TISWNSGSIGYADSVK | VGRGGGYFDY | 4.89 / 4.86 / ND | 4 of 9 (4.99) |
| GFTFDDYAMH | EISWNSGSIGYADSVK | VGRGGRYFRY | 4.65 / ND / ND | 4 of 9 (4.54) |
| GFFFDDYAMH | GINWNGGSIGYADSVK | VGRGGGYFDY | 2.93 / ND / ND | 2 of 9 (3.95) |
| GFTFDDYAVH | GISWNSGSWGYADSVK | VGGGGGYFDY | 4.26 / ND / 2.78 | 4 of 9 (4.42) |
| GFTFDDYNMH | GISWNSGSIGYADSVK | VGQGYGYFDY | 4.38 / ND / ND | 0 of 9 |
| GFTFDRYAMH | GSSWISGSIGYADSVK | VGRGGGYFDY | 4.76 / 5.28 / 4.42 | 5 of 9 (4.26) |
| GFTFDDYAMH | GVYWNSGSIGYADKVK | VGRGGGYFDY | 4.47 / ND / ND | 2 of 9 (3.96) |
| GFTFDDYAMH | GESWNSGSIGYADSVT | VGRGGGYFSY | 3.62 / ND / ND | 2 of 9 (4.41) |
| GFTFDDYAMH | GISSNSGSNGYADSVK | VGRGGGYFEY | ND / 3.05 / ND | 0 of 9 |
| GFTFDDYAMH | GISWNSGSIGYADSVK | DGRGGGKFPY | 2.58 / 3.02 / 2.87 | 2 of 9 (3.94) |
| GFTFDDYAMH | GICWNSGSIGYADSVK | DMRGGGYFDY | 4.41 / ND / ND | 1 of 9 (4.26) |
| GFTFDDYAMH | GGSWNSGSIGYADSVK | TGRLGGYFDY | 3.68 / 4.33 / ND | 2 of 9 (3.72) |
| GFTFDDYARH | GISWNSGSIGPADSVK | VGEGGGYFDY | 4.97 / ND / ND | 3 of 9 (5.32) |

Picked from the list: the 6 lowest averages where every replicate gave a value.

| CDR-H1 | CDR-H2 | CDR-H3 | log10 Kd, replicates | signal with controls |
|---|---|---|---|---|
| GFTFDNYAMH | GISWNSGAIGYADSVK | VGRGQGYFDY | 1.89 / 1.72 / 1.74 | 6 of 9 (4.12) |
| GFTFDDYAMH | GISWNSESIGYADSPK | VGRGGGYFDY | 2.22 / 2.49 / 2.55 | 0 of 9 |
| GFTFDDYAMH | GISWNSGSIGYADSVK | DGRGGGKFPY | 2.58 / 3.02 / 2.87 | 2 of 9 (3.94) |
| GFDFIDYAMH | GISWSSGSIGYADSVK | VGRGGGYFDY | 3.34 / 3.62 / 4.13 | 1 of 9 (3.12) |
| GFTFDRYAMH | GSSWISGSIGYADSVK | VGRGGGYFDY | 4.76 / 5.28 / 4.42 | 5 of 9 (4.26) |
| GFTFDDYAMH | GISWSSGCIGYADSVM | VGRGGGYFDY | 4.60 / 5.44 / 5.12 | 2 of 9 (5.27) |

Data: MIT Lincoln Laboratory AlphaSeq set, Engelhart et al. 2022, doi:10.1038/s41597-022-01779-4, as distributed in FLAb.